Patent publication US20200123190A1

The chains behind the UniProt entries cited, without tags or fusion partners. Where a name states a change or a piece, a line headed by the entry shows the natural chain unless it says otherwise.
UniProt P51178: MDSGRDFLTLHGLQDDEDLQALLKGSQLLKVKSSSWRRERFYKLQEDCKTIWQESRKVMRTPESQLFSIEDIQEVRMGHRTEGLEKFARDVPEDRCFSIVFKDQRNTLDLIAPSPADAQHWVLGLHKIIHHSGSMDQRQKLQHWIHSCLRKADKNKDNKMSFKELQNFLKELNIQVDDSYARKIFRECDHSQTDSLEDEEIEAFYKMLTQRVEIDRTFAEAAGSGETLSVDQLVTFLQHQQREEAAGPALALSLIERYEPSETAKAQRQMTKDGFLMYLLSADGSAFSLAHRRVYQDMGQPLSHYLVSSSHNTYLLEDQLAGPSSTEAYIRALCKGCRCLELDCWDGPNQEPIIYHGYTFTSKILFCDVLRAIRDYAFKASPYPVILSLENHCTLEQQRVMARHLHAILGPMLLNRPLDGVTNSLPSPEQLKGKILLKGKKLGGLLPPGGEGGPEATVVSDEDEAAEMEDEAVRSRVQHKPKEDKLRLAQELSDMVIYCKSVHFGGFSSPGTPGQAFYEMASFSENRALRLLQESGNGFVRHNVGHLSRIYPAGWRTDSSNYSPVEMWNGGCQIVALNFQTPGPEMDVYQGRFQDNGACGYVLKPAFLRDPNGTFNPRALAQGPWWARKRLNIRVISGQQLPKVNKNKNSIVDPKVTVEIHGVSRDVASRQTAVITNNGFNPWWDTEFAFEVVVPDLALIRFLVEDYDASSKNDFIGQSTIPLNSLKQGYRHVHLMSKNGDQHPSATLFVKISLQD

How the values were obtained:
[1] = target: Phospholipase CD1 (Homo sapiens, UniProt P51178); settings: Phospholipase CD1, PBS, 37° C., about 1 hour

Substance | Distribution coefficient: log P(n-octanol/PBS) | Change in HPLC pattern [1]
O,O′— Di(4-fluoro)benzyl 5-fluoro-2′-deoxy-5′-cytidylate [Compound (4)] | 2.196 | –
O,′-Di (4-fluoro)benzyl 2′-deoxy-2′,2′-difluoro-5′-cytidylate [Compound (1)] | – | Almost no change in the peak of the starting
